Measurements from patent US5506340A, “Tumor necrosis factor inhibitors” (Centecor, Inc., priority 1994, dated 1996).

Amino acid sequences for entries named in this document (tags omitted). Residues count along the entry.
UniProt P01375, 77-233 limits assumed: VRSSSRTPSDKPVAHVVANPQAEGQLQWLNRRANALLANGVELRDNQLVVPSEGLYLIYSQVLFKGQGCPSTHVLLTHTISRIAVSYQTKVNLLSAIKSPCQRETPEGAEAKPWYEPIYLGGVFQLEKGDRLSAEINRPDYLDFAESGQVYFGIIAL

Target: T1, human TNFα (Homo sapiens, UniProt P01375)
T1 construct: purchased Biosource, Camarillo, Calif
Assay: p55 receptor/IgG fusion protein binding assay (inhibition of TNFα capture by p55-Ig coated plate)
Conditions: positive control, cA2 Fab 500 ng/ml, TNFα 25 ng/ml; typical value
Method: In order to screen compounds for their ability to block TNFα binding to the TNF p55 receptor, an assay has been designed using TNFα and a p55/IgG fusion protein in place of monovalent, non-fusion p55 TNF receptor protein. This assay was designed to identify peptides which bind to human TNFα and thereby prevent the capture of the TNFα by a microtiter plate coated with p55-Ig fusion protein. A constant concentration of human TNFα is preincubated with the test peptide and then incubated on the p55-Ig coated microtiter wells. Bound TNFα is detected using a specific antisera and an alkaline phosphatase-conjugated probe. An active peptide will reduce the amount of human TNFα bound to the well relative to control wells in which TNFα but no peptide was added. […]
To detect TNFα captured by the p55-Ig plate, all wells were incubated in succession with polyclonal rabbit anti-human TNFα (Genzyme, Boston, Mass.; 1:500 in assay buffer, 50 μl/well), biotinylated goat anti-rabbit Ig (H&L) (Vector Laboratories, Burlingame, Calif; 1 μg/ml in assay buffer, 50 μl/well) and streptavidin-alkaline phosphatase conjugate (Pierce, Rockford, Ill.; 1 μg/ml in assay buffer, 50 μl/well). […] The optical density (OD) at 405 nm was measured on a microtiter plate reader (Molecular Devices Vmax plate reader), with the plate blank wells subtracted as background. […]

percent inhibition of TNFα capture by the p55-Ig plate: > 75%
Substance: cA2 Fab: Fab fragment of the mouse/human monoclonal anti-human TNFα antibody cA2 (positive control) [reference compound]
